Key:
Experiment in all cases: Octet
1C11_H3.1_L3 = molecular target: 1C11_H3.1_L3
1C11_H3.42_L3 = molecular target: 1C11_H3.42_L3
1C11_H3.125_L3 = molecular target: 1C11_H3.125_L3
1C11_H3.97_L3 = molecular target: 1C11_H3.97_L3
1C11_H3.18_L3 = molecular target: 1C11_H3.18_L3
1C11_H3.129_L3 = molecular target: 1C11_H3.129_L3
1C11_H3.90_L3 = molecular target: 1C11_H3.90_L3
1C11_H3.143_L3 = molecular target: 1C11_H3.143_L3
1C11_H3.35_L3 = molecular target: 1C11_H3.35_L3
1C11_H3.86_L3 = molecular target: 1C11_H3.86_L3
1C11_H3.120_L3 = molecular target: 1C11_H3.120_L3
1C11_H3.146_L3 = molecular target: 1C11_H3.146_L3
1C11_H3.148_L3 = molecular target: 1C11_H3.148_L3
1C11_H3.96_L3 = molecular target: 1C11_H3.96_L3
1C11_H3.147_L3 = molecular target: 1C11_H3.147_L3
1C11_H3.91_L3 = molecular target: 1C11_H3.91_L3
1C11_H3.134_L3 = molecular target: 1C11_H3.134_L3
1C11_H3.62_L3 = molecular target: 1C11_H3.62_L3
1C11_H3.43_L3 = molecular target: 1C11_H3.43_L3
1C11_H3.84_L3 = molecular target: 1C11_H3.84_L3
1C11_H3.78_L3 = molecular target: 1C11_H3.78_L3
1C11_H3.150_L3 = molecular target: 1C11_H3.150_L3
1C11_H3.168_L3 = molecular target: 1C11_H3.168_L3
1C11_H3.80_L3 = molecular target: 1C11_H3.80_L3
1C11_H3.74_L3 = molecular target: 1C11_H3.74_L3
1C11_H3.81_L3 = molecular target: 1C11_H3.81_L3
1C11_H3.159_L3 = molecular target: 1C11_H3.159_L3
1C11_H3.50_L3 = molecular target: 1C11_H3.50_L3
1C11_H3.83_L3 = molecular target: 1C11_H3.83_L3
1C11_H3.85_L3 = molecular target: 1C11_H3.85_L3
1C11_H3.158_L3 = molecular target: 1C11_H3.158_L3
1C11_H3.82_L3 = molecular target: 1C11_H3.82_L3
1C11_H3.59_L3 = molecular target: 1C11_H3.59_L3
[1] = molecular target: 1C11_H3_L3.141 (XENP25341)
[2] = molecular target: 1C11_H3.224_L3.144 (XENP25336)
[3] = molecular target: 1C11_H3.188_L3.148 (XENP25335)
[4] = molecular target: 1C11_H3.188_L3 (XENP25340)
[5] = molecular target: 1C11_H3.226_L3.148 (XENP25339)
[6] = molecular target: 1C11_H3.226_L3.144 (XENP25338)
[7] = molecular target: 1C11_H3.188_L3.144 (XENP25334)
[8] = molecular target: 1C11_H3.224_L3.148 (XENP25337)

B1: PD-1 (receptor)
chain: LDSPDRPWNPPTFSPALLVVTEGDNATFTCSFSNTSESFVLNWYRMSPSNQTDKLAAFPEDRSQPGQDCRFRVTQLPNGRDFHMSVVRARRNDSGTYLCGAISLAPKAQIKESLRAELRVTERRAEVPTAHPSPSPRPAGQFQ
Work on B1 yielded a Kd (1C11_H3.1_L3) of 24.2 nM, a Kd (1C11_H3.42_L3) of 27.8 nM and a Kd (1C11_H3.125_L3) of 18 nM. The Kd (1C11_H3.97_L3) was 24.2 nM, the Kd (1C11_H3.18_L3) was 15.6 nM and the Kd (1C11_H3.129_L3) was 23.7 nM. The Kd (1C11_H3.90_L3) was 25.3 nM, the Kd (1C11_H3.143_L3) was 31.9 nM and the Kd (1C11_H3.35_L3) was 69.2 nM. It also gave a Kd (1C11_H3.86_L3) of 19 nM, a Kd (1C11_H3.120_L3) of 21.4 nM and a Kd (1C11_H3.146_L3) of 23 nM. For the same binder, the Kd (1C11_H3.148_L3) was 22.6 nM, the Kd (1C11_H3.96_L3) was 23 nM and the Kd (1C11_H3.147_L3) was 20.4 nM. For the same binder, the Kd (1C11_H3.91_L3) was 24.7 nM, the Kd (1C11_H3.134_L3) was 21.7 nM and the Kd (1C11_H3.62_L3) was 16.2 nM. For the same binder, the Kd (1C11_H3.43_L3) was 16 nM, the Kd (1C11_H3.84_L3) was 20.1 nM and the Kd (1C11_H3.78_L3) was 47.5 nM. The Kd (1C11_H3.150_L3) was 18.9 nM, the Kd (1C11_H3.168_L3) was 22.5 nM and the Kd (1C11_H3.80_L3) was 38.8 nM. The Kd (1C11_H3.74_L3) was 39 nM, the Kd (1C11_H3.81_L3) was 22.2 nM and the Kd (1C11_H3.159_L3) was 22.9 nM. It also gave a Kd (1C11_H3.50_L3) of 18 nM, a Kd (1C11_H3.83_L3) of 35.7 nM and a Kd (1C11_H3.85_L3) of 17.8 nM. The Kd (1C11_H3.158_L3) was 15.9 nM, the Kd (1C11_H3.82_L3) was 16 nM and the Kd (1C11_H3.59_L3) was 9.74 nM. It also gave a Kd [1] of 33.7 nM, a Kd [2] of 33.1 nM and a Kd [3] of 41.3 nM. For the same binder, the Kd [4] was 53.2 nM, the Kd [5] was 41.8 nM and the Kd [6] was 43.7 nM. For the same binder, the Kd [7] was 50.4 nM and the Kd [8] was 31.2 nM.

Reference: US20220204624A1 (published 2022)
